scFv variants of Ab-14 (heavy chain) against a SARS-CoV-2 spike peptide

Target: peptide PDVDLGDISGINAS, taken from heptad repeat 2 (HR2) of SARS-CoV-2 spike.

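Variants in AAYL49 differ from the parent at up to three CDR positions; double and triple changes were sampled at random. The assay is AlphaSeq: two haploid yeast populations carry antibody and antigen on their surface. After mating in shaken culture at 30 °C for 16 h, diploids were selected and their barcode pairs sequenced. The ratio of observed to expected reads was calibrated, replicate by replicate, on BCL2-family standards whose Kd was known from biolayer interferometry. Mating was done three times.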

Parent: Ab-14, a human scFv built as VH, the linker GGGGSGGGGSGGGGS, VL. Only the CDRs of the heavy chain vary.
VH: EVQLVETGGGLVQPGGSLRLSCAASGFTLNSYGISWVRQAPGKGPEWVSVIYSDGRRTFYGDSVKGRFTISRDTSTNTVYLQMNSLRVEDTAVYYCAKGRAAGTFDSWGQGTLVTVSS
VL: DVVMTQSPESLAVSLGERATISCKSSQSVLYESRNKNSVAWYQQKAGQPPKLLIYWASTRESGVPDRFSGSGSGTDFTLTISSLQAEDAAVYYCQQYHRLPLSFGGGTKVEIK

Positions count from residue 1 of the parent VH; I51W puts W in place of I. Scale: log10 of Kd in nM, estimated from mating counts; low values are strong binders. The mean shown is taken over the replicates in which the pair was detected. Where no diploid with the target was found in that replicate, the entry reads "nd": below detection, most likely a poor binder, though not proof of it. As a blank, each scFv also met three strains without target: over library AAYL49, 15% of these pairings were detected, typically at 4.06 and seldom below 2.83. The control count says in how many pairings with the empty strains this scFv gave a signal, with their mean in brackets.

changes	log10 Kd, replicates	mean, log10 nM	signal with controls
I51W/R56S/K65T	nd / 4.51 / 6.03	5.27	5 of 9 (4.43)
K65M/G99E/A101D	nd / nd / nd	nd	0 of 9
G33C/S63D	nd / nd / nd	nd	1 of 9 (3.62)
S53N/G61E/A101Q	2.72 / 2.96 / 2.69	2.79	3 of 9 (3.97)
G26A/L29Q/A101T	1.17 / 1.25 / 1.85	1.42	1 of 9 (4.14)
G26C/I34G/F105V	nd / nd / nd	nd	2 of 9 (2.94)
S53G/T58K/F59A	1.59 / 1.86 / 2.02	1.82	3 of 9 (4.71)
Y52M/G61N/R100C	nd / nd / nd	nd	0 of 9
F27N/V50W/R100G	5.07 / 3.47 / nd	4.27	4 of 9 (4.61)
Y32E/S53F/R56E	nd / nd / nd	nd	0 of 9
D54Y/K65D/G103S	nd / nd / nd	nd	0 of 9
D54C/V64N/K65L	nd / nd / nd	nd	0 of 9
Y32I/I34W/G61V	nd / nd / nd	nd	2 of 9 (3.41)
I51F/Y52D/S63V	nd / nd / nd	nd	1 of 9 (3.86)
G33Q/K65Y/G103P	nd / nd / nd	nd	1 of 9 (2.96)
F59V/A102S/F105H	0.59 / 0.86 / 0.54	0.67	0 of 9
S53P/S63F/S107C	2.84 / 1.82 / 2.15	2.27	0 of 9
T58H/S63H/S107A	nd / nd / nd	nd	0 of 9
G33P/S53E	5.29 / nd / 4.49	4.89	3 of 9 (4.20)
Y32F/A101S/S107N	1.54 / 1.64 / 2.01	1.73	0 of 9
V50C/D106V/S107T	1.94 / 2.26 / 2.09	2.10	2 of 9 (2.92)
S63D/A102W/F105W	4.26 / 4.39 / nd	4.33	3 of 9 (3.63)
S31G/I34Y/V64E	nd / nd / nd	nd	0 of 9
Y32R/I34K/G55A	nd / nd / nd	nd	1 of 9 (3.24)
I34R/D54Y/G103H	nd / nd / nd	nd	3 of 9 (4.16)
I51C/D54C/T104M	nd / nd / nd	nd	1 of 9 (4.21)
I51C	3.72 / nd / nd	3.72	0 of 9
T28D/N30G/G33H	nd / 4.36 / 2.04	3.20	0 of 9
Y52I/F59P/Y60Q	nd / nd / nd	nd	7 of 9 (4.41)
I34W/S35Q/R56M	nd / 3.81 / nd	3.81	2 of 9 (3.69)
S31I/K65W/G99C	nd / nd / nd	nd	3 of 9 (4.65)
Y60F/S63Y/R100S	nd / nd / 4.64	4.64	2 of 9 (3.75)

Repeated from above, the 5 best binders with a signal in all replicates:

changes	log10 Kd, replicates	mean, log10 nM	signal with controls
F59V/A102S/F105H	0.59 / 0.86 / 0.54	0.67	0 of 9
G26A/L29Q/A101T	1.17 / 1.25 / 1.85	1.42	1 of 9 (4.14)
Y32F/A101S/S107N	1.54 / 1.64 / 2.01	1.73	0 of 9
S53G/T58K/F59A	1.59 / 1.86 / 2.02	1.82	3 of 9 (4.71)
V50C/D106V/S107T	1.94 / 2.26 / 2.09	2.10	2 of 9 (2.92)

From the AlphaSeq antibody data of Engelhart et al. 2022 (doi:10.1038/s41597-022-01779-4), copy in the FLAb collection.